Sequences of proteins named here, by UniProt entry; tags and fusion partners are left off.
UniProt P04049, whole entry Y340E/Y341E: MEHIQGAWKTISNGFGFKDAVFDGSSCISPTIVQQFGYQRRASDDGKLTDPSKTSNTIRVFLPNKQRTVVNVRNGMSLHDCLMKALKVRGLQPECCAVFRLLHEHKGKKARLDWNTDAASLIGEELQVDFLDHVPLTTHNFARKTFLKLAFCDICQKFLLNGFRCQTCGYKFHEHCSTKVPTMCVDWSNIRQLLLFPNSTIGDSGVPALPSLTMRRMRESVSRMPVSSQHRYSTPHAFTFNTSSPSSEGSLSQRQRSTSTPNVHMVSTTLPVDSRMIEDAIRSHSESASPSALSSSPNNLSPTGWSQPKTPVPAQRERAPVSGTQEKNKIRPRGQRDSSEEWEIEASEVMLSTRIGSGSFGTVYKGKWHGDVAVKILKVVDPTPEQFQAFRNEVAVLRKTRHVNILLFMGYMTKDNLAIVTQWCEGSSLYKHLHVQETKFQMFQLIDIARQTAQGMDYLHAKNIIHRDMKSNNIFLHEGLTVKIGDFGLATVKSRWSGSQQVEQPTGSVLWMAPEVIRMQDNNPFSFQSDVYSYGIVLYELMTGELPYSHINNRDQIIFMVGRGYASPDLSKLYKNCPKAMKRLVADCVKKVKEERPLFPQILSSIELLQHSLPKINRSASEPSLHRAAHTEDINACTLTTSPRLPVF

According to patent US9694016B2 (Novartis AG, priority 2013, dated 2017):

Molecular target: C-Raf FL (full-length C-Raf protein, Y340E and Y341E activating mutations) (Homo sapiens (Human), UniProt P04049, Y340E/Y341E)
Assay type: biochemical
Conditions: AlphaScreen, 60 min pre-incubation, 1 hour reaction; read-out: c-Raf FL IC-50

| Compound | IC50 [nM] |
| --- | --- |
| Cc1ncc(NC(=O)c2cccc(C(F)(F)F)c2)cc1-c1cc(N2CCOCC2)nc(N2CC(O)C2)n1 [Example 768, N-(5-(2-(3-hydroxyazetidin-1-yl)-6-morpholinopyrimidin-4-yl)-6-methylpyridin-3-yl)-3-(trifluoromethyl)benzamide] | 2.8 |
| Cc1ccc(NC(=O)c2ccnc(C(C)(C)C#N)c2)cc1-c1cc(N2CCOCC2)nc(N2CC(O)C2)n1 [Example 769] | 8000 |
| Cc1ncc(NC(=O)c2cccc(C(F)F)c2)cc1-c1cc(N2CCOCC2)nc(N2CC(O)C2)n1 [Example 770, 3-(difluoromethyl)-N-(5-(2-(3-hydroxyazetidin-1-yl)-6-morpholinopyrimidin-4-yl)-6-methylpyridin-3-yl)benzamide] | 1.3 |
| Cc1ccc(NC(=O)c2ccnc(C(C)C)c2)cc1-c1cc(N2CCOCC2)nc(N2CC(O)C2)n1 [Example 771, N-(3-(2-(3-hydroxyazetidin-1-yl)-6-morpholinopyrimidin-4-yl)-4-methylphenyl)-2-isopropylisonicotinamide] | 0.8 |
| Cc1ccc(NC(=O)c2ccnc(C(C)(F)F)c2)cc1-c1cc(N2CCOCC2)nc(N2CC(O)C2)n1 [Example 772, 2-(1,1-difluoroethyl)-N-(3-(2-(3-hydroxyazetidin-1-yl)-6-morpholinopyrimidin-4-yl)-4-methylphenyl)isonicotinamide] | 0.6 |
| Cc1ccc(NC(=O)c2ccnc(C(F)(F)F)c2)cc1-c1cc(N2CCOCC2)nc(N2CC(O)C2)n1 [Example 773, N-(3-(2-(3-hydroxyazetidin-1-yl)-6-morpholinopyrimidin-4-yl)-4-methylphenyl)-2-(trifluoromethyl)isonicotinamide] | 0.4 |
| Cc1ncc(NC(=O)c2cccc(C(F)(F)F)c2)cc1-c1cc(N2CCOCC2)nc(N2CCNCC2)n1 [Example 775, N-(6-methyl-5-(6-morpholino-2-(piperazin-1-yl)pyrimidin-4-yl)pyridin-3-yl)-3-(trifluoromethyl)benzamide] | 4.6 |
| Cc1ncc(NC(=O)c2cccc(C(F)(F)F)c2)cc1-c1cc(N2CCOCC2)nc(OC2CNC2)n1 [Example 776, N-(5-(2-(azetidin-3-yloxy)-6-morpholinopyrimidin-4-yl)-6-methylpyridin-3-yl)-3-(trifluoromethyl)benzamide] | 10600 |
| Cc1ccc(NC(=O)c2ccnc(C(C)C)c2)cc1-c1cc(N2CCOCC2)nc(OC2CNC2)n1 [Example 778, N-(3-(2-(azetidin-3-yloxy)-6-morpholinopyrimidin-4-yl)-4-methylphenyl)-2-isopropylisonicotinamide] | 0.9 |
| Cc1ccc(NC(=O)c2ccnc(C(C)(F)F)c2)cc1-c1cc(N2CCOCC2)nc(OC2CNC2)n1 [Example 779, N-(3-(2-(azetidin-3-yloxy)-6-morpholinopyrimidin-4-yl)-4-methylphenyl)-2-(1,1-difluoroethyl)isonicotinamide] | 0.7 |
| Cc1ccc(NC(=O)c2ccnc(C(F)(F)F)c2)cc1-c1cc(N2CCOCC2)nc(OC2CNC2)n1 [Example 780, N-(3-(2-(azetidin-3-yloxy)-6-morpholinopyrimidin-4-yl)-4-methylphenyl)-2-(trifluoromethyl)isonicotinamide] | 0.8 |
| Cc1ncc(NC(=O)c2cccc(C(F)(F)F)c2)cc1-c1cc(N2CCOCC2)nc(N2C(=O)OC[C@@H]2C)n1 [Example 781, (S)—N-(6-methyl-5-(2-(4-methyl-2-oxooxazolidin-3-yl)-6-morpholinopyrimidin-4-yl)pyridin-3-yl)-3-(trifluoromethyl)benzamide] | 2.7 |
| Cc1ccc(NC(=O)c2ccnc(C(C)(C)C#N)c2)cc1-c1cc(N2CCOCC2)nc(N2C(=O)OC[C@@H]2C)n1 [Example 782, (S)-2-(2-cyanopropan-2-yl)-N-(4-methyl-3-(2-(4-methyl-2-oxooxazolidin-3-yl)-6-morpholinopyrimidin-4-yl)phenyl)isonicotinamide] | 6.5 |
| Cc1ccc(NC(=O)c2cccc(C(F)(F)F)c2)cc1-c1cc(N2CCOCC2)nc(N2C(=O)OC[C@@H]2C)n1 [Example 783, (S)—N-(4-methyl-3-(2-(4-methyl-2-oxooxazolidin-3-yl)-6-morpholinopyrimidin-4-yl)phenyl)-3-(trifluoromethyl)benzamide] | 2.1 |
| Cc1ncc(NC(=O)c2ccnc(C(C)(C)C#N)c2)cc1-c1cc(N2CCOCC2)nc(N2C(=O)OC[C@@H]2C)n1 [Example 784, (S)-2-(2-cyanopropan-2-yl)-N-(6-methyl-5-(2-(4-methyl-2-oxooxazolidin-3-yl)-6-morpholinopyrimidin-4-yl)pyridin-3-yl)isonicotinamide] | 51 |
| Cc1ccc(NC(=O)c2ccnc(C(F)F)c2)cc1-c1cc(N2CCOCC2)nc(N2C(=O)OC[C@@H]2C)n1 [Example 785, (S)-2-(difluoromethyl)-N-(4-methyl-3-(2-(4-methyl-2-oxooxazolidin-3-yl)-6-morpholinopyrimidin-4-yl)phenyl)isonicotinamide] | 3.1 |
| Cc1ccc(NC(=O)c2ccnc(C(C)(C)C#N)c2)cc1-c1cc(N2CCOCC2)nc(NC2CNC2)n1 [Example 786, N-(3-(2-(azetidin-3-ylamino)-6-morpholinopyrimidin-4-yl)-4-methylphenyl)-2-(2-cyanopropan-2-yl)isonicotinamide] | 3.4 |
| Cc1ncc(NC(=O)c2cccc(C(F)(F)F)c2)cc1-c1cc(N2CCOCC2)nc(NC2CNC2)n1 [Example 787, N-(5-(2-(azetidin-3-ylamino)-6-morpholinopyrimidin-4-yl)-6-methylpyridin-3-yl)-3-(trifluoromethyl)benzamide] | 1.7 |
| Cc1ncc(NC(=O)c2cccc(C(F)(F)F)c2)cc1-c1cc(N2CCOCC2)nc(C(C)(C)O)n1 [Example 788, N-(5-(2-(2-hydroxypropan-2-yl)-6-morpholinopyrimidin-4-yl)-6-methylpyridin-3-yl)-3-(trifluoromethyl)benzamide] | 38 |
| Cc1ncc(NC(=O)c2ccnc(C(C)(C)F)c2)cc1-c1cc(N2CCOCC2)n2nccc2n1 [Example 790, 2-(2-fluoropropan-2-yl)-N-(6-methyl-5-(7-morpholinopyrazolo[1,5-a]pyrimidin-5-yl)pyridin-3-yl)isonicotinamide] | 1.3 |
| Cc1ncc(NC(=O)c2ccnc(C(C)(C)C#N)c2)cc1-c1cc(N2CCOCC2)n2nccc2n1 [Example 791, 2-(2-cyanopropan-2-yl)-N-(6-methyl-5-(7-morpholinopyrazolo[1,5-a]pyrimidin-5-yl)pyridin-3-yl)isonicotinamide] | 2.6 |
| Cc1ccc(NC(=O)c2ccnc(C(C)(C)C#N)c2)cc1-c1cc(N2CCOCC2)n2nccc2n1 [Example 792, 2(2-cyanopropan-2-yl)-N-(4-methyl-3(7-morpholinopyrazolo[1,5-a]pyrimidin-5-yl)phenyl)isonicotinamide] | 0.3 |
| Cc1ncc(NC(=O)c2cccc(C(F)(F)F)c2)cc1-c1cc(N2CCOCC2)n2nccc2n1 [Example 793] | 0.3 |
| Cc1ccc(NC(=O)c2ccnc(C(C)(C)O)c2)cc1-c1cc(N2CCOCC2)n2nccc2n1 [Example 794, 2-(2-hydroxypropan-2-yl)-N-(4-methyl-3-(7-morpholinopyrazolo[1,5-a]pyrimidin-5-yl)phenyl)isonicotinamide] | 0.8 |
